Measurements published in EPA's ToxValDB 9.5 (doi:10.2903/j.efsa.2010.1823).
Converted amounts (≈) assume the structure as drawn.

Columns and labels:
Anas platyrhynchos = settings: short-term; oral; feed; mortality
Canidae = settings: chronic; duration: 1 years; oral; Dog Other; organ weight
Daphnia magna = settings: chronic/long-term; duration: 21 days; reproduction
Oryctolagus sp. = settings: developmental; development
Tagia sp. = settings: acute; duration: 14 days; mortality
Aphidius rhopalosiphi = assay: LR50; higher = less toxic; settings: not reported; mortality

SMILES: CCOc1nc(C(Cl)(Cl)Cl)ns1 [Etridiazole]
- LC50 (Anas platyrhynchos): 286 mg/kg-day
- NOAEL (Canidae): 3.1 mg/kg-day
- LD50 (Colinus virginianus; acute, oral, mortality): 560 mg/kg-day
- NOEC (Colinus virginianus; reproduction developmental): 3.7 mg/kg-day
- NOEC (Daphnia magna): 0.37 mg/L
- LC50 (Oncorhynchus mykiss; acute, duration: 96 hours, mortality): 2.4 µg/mL (≈ 9.7 µM)
- NOEC (Oncorhynchus mykiss; chronic/long-term, duration: 90 days, growth): 0.12 mg/L
- NOAEL (Oryctolagus sp.): 15 mg/kg-day
- LD50 (Rattus norvegicus; acute, oral, mortality): 945 mg/kg-day
- LOAEL (Rattus norvegicus; chronic, duration: 2 years, histopathology: nonneoplastic): 5 mg/kg-day
- NOAEL (Rattus norvegicus; chronic, growth): 5.3 mg/kg-day
- LC50 (Tagia sp.): 198 mg/kg
- LR50 (Aphidius rhopalosiphi): 1490 g/ha
